From ChEMBL document CHEMBL4196194, “De Novo Design of α-Helical Lipopeptides Targeting Viral Fusion Proteins: A Promising Strategy for Relatively Broad-Spectrum Antiviral Drug Discovery” (J Med Chem, 2018) come the findings set out here.

This assay concerns Lipid bilayer. As to the kind of experiment: Binding affinity to POPC LUV liposome system at 15 uM. In short, it runs like this:
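Isothermal titration calorimetry at 25 °C. POPC large unilamellar vesicles (13 mM in the syringe) were titrated into peptide in the cell (15 μM) over 20 injections, 120 s apart, with stirring at 750 rpm. The binding constant was derived from the heat released during peptide–lipid binding.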

On to `CCCCCCCCCCCCCCCC(=O)NCCCC[C@H](NC(=O)CCNC(=O)[C@H](CCCCN)NC(=O)[C@H](CCCCN)NC(=O)[C@H](CCC(N)=O)NC(=O)[C@@H](NC(=O)[C@H](CCC(=O)O)NC(=O)[C@H](CCC(=O)O)NC(=O)[C@@H](NC(=O)[C@H](CCCCN)NC(=O)[C@H](CCCCN)NC(=O)[C@H](CCC(N)=O)NC(=O)[C@@H](NC(=O)[C@H](CCC(=O)O)NC(=O)[C@H](CCC(=O)O)NC(=O)[C@@H](NC(=O)[C@H](CCCCN)NC(=O)[C@H](CCCCN)NC(=O)[C@H](CCC(N)=O)NC(=O)[C@@H](NC(=O)[C@H](CCC(=O)O)NC(=O)[C@H](CCC(=O)O)NC(=O)[C@@H](NC(=O)[C@H](CCCCN)NC(=O)[C@H](CCCCN)NC(=O)[C@H](CCC(N)=O)NC(=O)[C@@H](NC(=O)[C@H](CCC(=O)O)NC(=O)[C@H](CCC(=O)O)NC(=O)[C@@H](NC(=O)[C@H](CCCCN)NC(=O)[C@H](CCCCN)NC(=O)[C@H](CCC(N)=O)NC(=O)[C@@H](NC(=O)[C@H](CCC(=O)O)NC(=O)[C@H](CCC(=O)O)NC(=O)[C@@H](NC(C)=O)[C@@H](C)CC)[C@@H](C)CC)[C@@H](C)CC)[C@@H](C)CC)[C@@H](C)CC)[C@@H](C)CC)[C@@H](C)CC)[C@@H](C)CC)[C@@H](C)CC)[C@@H](C)CC)C(N)=O`, for which the K came out at 1.04 ×10⁵ /M.
